Earlier results in patent US4608364A, “Pharmaceutical agent for the treatment of diabetes mellitus” (Hoechst Aktiengesellschaft, priority 1983, dated 1986).

Settings: cited from earlier work

Which “in vivo half life” value does the source give for insulin [reference compound] here?
Its value is “about 7 minutes”.
